Test results: ChEMBL document CHEMBL1124909 (J Med Chem, 1990)

Assays:
Mus musculus [1] = assay: The percentage 30-day survival of the mice at 150 mg/kg dose, with the radiation dose of 9.5 GY.
Mus musculus [2] = assay: The percentage 30-day survival of the mice at 300 mg/kg dose, with the radiation dose of 9.5 GY.
Mus musculus [3] = assay: The percentage 30-day survival of the mice at 75 mg/kg dose, with the radiation dose of 9.5 GY.
Mus musculus [4] = assay: Antiradiation tests were performed in groups of 10 mice against lethal gamma-radiation 30 min after intraperitoneal dosing. Lethal dose that causes toxic deaths in mice.; details: in vivo, ip, 0.5 h
Mus musculus [5] = assay: The percentage 30-day survival of the mice at 37.5 mg/kg dose, with the radiation dose of 9.5 GY.
Mus musculus [6] = assay: The percentage 30-day survival of the mice at 50 mg/kg dose, with the radiation dose of 10 GY.
Mus musculus [7] = assay: The percentage 30-day survival of the mice at 25 mg/kg dose, with the radiation dose of 10 GY.
Mus musculus [8] = assay: The percentage 30-day survival of the mice at 600 mg/kg dose, with the radiation dose of 10 GY.; format: functional
Mus musculus [9] = assay: The percentage 30-day survival of the mice at 300 mg/kg dose, with the radiation dose of 10 GY.; format: functional
Mus musculus [10] = assay: The percentage 30-day survival of the mice at 150 mg/kg dose, with the radiation dose of 10 GY.
Mus musculus [11] = assay: The percentage 30-day survival of the mice at 75 mg/kg dose, with the radiation dose of 10 GY.
Mus musculus [12] = assay: The percentage 30-day survival of the mice at 37.5 mg/kg dose, with the radiation dose of 10 GY.
Mus musculus [13] = assay: The percentage 30-day survival of the mice at 100 mg/kg dose, with the radiation dose of 9.5 GY.

N=C(S)CCNCCSP(=O)([O-])O.[Li+]
Survival (Mus musculus [1]): 40% | Survival (Mus musculus [2]): 100% | Survival (Mus musculus [3]): 10%

CC(C)(C)NC(=O)CCNCCSP(=O)([O-])[O-].[Li+].[Li+]
Survival (Mus musculus [1]): 60% | LD50 (Mus musculus [4]): > 300 mg/kg | Survival (Mus musculus [2]): 80% | Survival (Mus musculus [3]): 40%

N=C(N)CCNCCSP(=O)(O)O
Survival (Mus musculus [1]): 100% | Survival (Mus musculus [5]): 10% | Survival (Mus musculus [3]): 70%

NC(=O)CCNCCSP(=O)(O)O
Survival (Mus musculus [6]): 0% | Survival (Mus musculus [7]): 0%

NC(=O)CCNCCSP(=O)([O-])O.[Li+]
Survival (Mus musculus [8]): 70% | Survival (Mus musculus [9]): 10% | Survival (Mus musculus [10]): 0%

C/N=C(/N)CCNCCSP(=O)(O)O
Survival (Mus musculus [1]): 80% | Survival (Mus musculus [5]): 30% | Survival (Mus musculus [3]): 50%

C/N=C(/S)CCNCCSP(=O)([O-])O.[Li+]
Survival (Mus musculus [11]): 0% | Survival (Mus musculus [12]): 0% | Survival (Mus musculus [10]): 80%

O=P([O-])(O)SCCNCCC1=NCCN1.[Li+]
Survival (Mus musculus [13]): 80% | Survival (Mus musculus [5]): 0% | Survival (Mus musculus [3]): 20%

CNC(=O)CCNCCSP(=O)([O-])O.[Li+]
Survival (Mus musculus [8]): 80% | LD50 (Mus musculus [4]): > 600 mg/kg | Survival (Mus musculus [9]): 20%
